Assay results published in patent US20240254458A1.

Molecular target: iLight (purified protein, IsPadC-PCM with substitutions I68F, H80Q, A86T, R90S, S242C, R274K, R295H, I360V and L464V) (Idiomarina sp.)
Test: size-exclusion chromatography at […] in darkness after 30 min of 660 nm light

**Q.** With “iLight (purified protein, IsPadC-PCM with substitutions I68F, H80Q, A86T, R90S, S242C, R274K, R295H, I360V and L464V)” as the substance, how does the fraction of the protein that elutes as a tetramer read?
**A.** 25%
